# From patent US11801260B2, “Compositions for treating joint or connective tissue disease comprising dextran or poloxamer” (MEDICINE PARK CO., LTD, priority 2017, dated 2023)
# Legend:
# [1] = test system: type II collagen production; assay: Type II collagen production level (ELISA of cell supernatant) in rhIL-1α osteoarthritis in vitro model; format: cell-based; conditions: primary rat chondrocytes, rhIL-1α 5 ng/mL for 24 h, test solution given 1 h before, label = (w/v) % of D dextran 1, P poloxamer 188, T dextran 5, mixtures 1:1 v:v, HN 8.33 mg/mL, IM 5 μM
# Method: (§1) In order to identify protein production levels of the type II collagen and aggrecan among indicator substances for osteoarthritis evaluation, each test substance was administered to chondrocytes at 1 hour before the treatment with rhIL-1α, and then the cell was cultured for 24 hours. Type II collagen and aggrecan are cartilage substrate compositions. Thus, when the production levels thereof are increased, the cartilage substrate protection effect may be excellent.
# (§2) In this connection, cell supernatant (culture solution) was collected and centrifuged at 13,000 rpm for 10 minutes, and thus only the supernatant was used for analysis. The centrifuged cell supernatant was analyzed using Aggrecan ELISA Kit (Rat Aggrecan ELISA Kit, Mybiosource, MBS261073) and with reference to the manuals of the type II Collagen (Type II Collagen detection Kit, Multi-Species, Chondrex, 6018). For accurate analysis, absorbance was measured at 450 nm and 490 nm using an ELISA reader (EPOCH 2 microplate reader, BioTek, Instruments, VT, USA) of the entire wavelength range. The contents (ng/mL) of the type II collagen and aggrecan were quantified according to the calibration curve.
# aggrecan production = assay: Aggrecan production level (ELISA of cell supernatant) in rhIL-1α osteoarthritis in vitro model; format: cell-based; conditions: primary rat chondrocytes, rhIL-1α 5 ng/mL for 24 h, test solution given 1 h before, label = (w/v) % of D dextran 1, P poloxamer 188, T dextran 5, mixtures 1:1 v:v, HN 8.33 mg/mL, IM 5 μM
# Method: as §1, §2
smiles,measurement,setting,value
"COc1ccc2c(c1)c(CC(=O)O)c(C)n2C(=O)c1ccc(Cl)cc1 [IM, indomethacin]",Type II Collagen Mean,[1],127.3 ng/mL
same,Aggrecan Mean,aggrecan production,1.573 ng/mL
